Reference: patent publication US9969752B2, “Inhibitors of HIF prolyl hydroxylase” (MERCK SHARP & DOHME CORP., priority 2014, dated 2018)

Amino acid sequences for entries named in this document (tags omitted).
UniProt Q9GZT9, whole entry: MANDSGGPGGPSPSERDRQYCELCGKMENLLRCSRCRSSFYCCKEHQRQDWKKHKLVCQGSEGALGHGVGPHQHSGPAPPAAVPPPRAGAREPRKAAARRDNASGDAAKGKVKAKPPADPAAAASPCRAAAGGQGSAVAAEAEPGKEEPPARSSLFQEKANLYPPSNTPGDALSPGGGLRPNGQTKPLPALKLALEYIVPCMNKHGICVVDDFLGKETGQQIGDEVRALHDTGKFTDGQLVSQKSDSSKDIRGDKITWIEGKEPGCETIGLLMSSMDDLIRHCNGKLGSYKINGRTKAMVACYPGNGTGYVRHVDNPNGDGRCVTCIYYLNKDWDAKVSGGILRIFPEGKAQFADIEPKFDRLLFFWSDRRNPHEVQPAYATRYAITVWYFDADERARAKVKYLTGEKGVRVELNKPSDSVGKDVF

Target: Human HIF-PHD2 (Homo sapiens, UniProt Q9GZT9)
Test: Inhibition of the hydroxylation of a HIF peptide by PHD2 (time resolved fluorescence, 384-well)
Assay type: biochemical
Conditions: read-out: Human HIF-PHD2 IC50; FLAG-tagged full length PHD2; 0.2 μM 2-oxoglutarate, 0.5 μM HIF-1α peptide; 45 minutes at room temperature

IC50: 12 nM
SMILES: Cc1ccc2c(O)c(C(=O)NCC(=O)O)c(=O)n3c2c1OCC3c1cscn1 (stereo not shown)
